Tested on: mouse prostate organoids

## C[C@]12CC[C@H]3[C@@H](CCC4=CC(=O)CC[C@@]43C)[C@@H]1CC[C@@H]2O [testosterone]
ENR vs ENR+1 nM DHT
  Increase of growth/doublings: up to 3 fold
ENR+DiHydro Testosterone
  Expansion of cultures compared with no testosterone: expand the same as without testosterone

## C[C@]12CCC(=O)C[C@@H]1CC[C@@H]1[C@@H]2CC[C@]2(C)[C@@H](O)CC[C@@H]12 [DHT, dihydrotestosterone]
ENR+1 nM DHT
  Expression of basal markers p63 and Cytokeratin 5 (RT-PCR): downregulated
  Expression of putative stem cell markers Lgr5 and Tnfrsf19 (RT-PCR): downregulated
